Results reported in patent publication US7250304B2, “Functional assay of high-density lipoprotein” (The Regents of the University of California, priority 2000, dated 2007).

How the values were obtained:
[1] = test system: human artery wall cell cocultures; assay: LDL oxidation by human artery wall cell cocultures (lipid hydroperoxides); format: cell-based; conditions: re-isolated, then cocultures 8 hrs
Procedure: The wells of the microtiter plates were treated with 0.1% gelatin at 37° C. overnight. HASMC were added at a confluent density of 1×10^5 cells/cm^2. Cells were cultured for 2 d at which time they had covered the entire surface of the well and had produced a substantial amount of extracellular matrix. HAEC were subsequently added at 2×10^5 cells/cm^2 and were allowed to grow forming a complete monolayer of confluent HAEC in 2 d. In all experiments, HAEC and autologous HASMC (from the same donor) were used at passage levels of four to six.
In general, the cocultures were treated with native LDL (250 μg/ml) in the absence or presence of HDL for 8 h. The supernatants were collected and used for determination of lipid hydroperoxide levels. The cocultures were subsequently washed and fresh culture medium 199 (M199) without any additions was added and incubated for an additional 8 hrs. This allowed the collection of monocyte chemotactic activity released by the cells as a result of stimulation by the oxidized LDL. At the end of incubation, the supernatants were collected from cocultures, diluted 40-fold, and assayed for monocyte chemotactic activity. […] The number of migrated monocytes was determined microscopically and expressed as the mean±SD of 12 standardized high power fields counted in quadruple wells.
Statistical significance was determined by model 1 ANOVA. […]

C57BL/6 mice = assay: Injection into mice, LDL isolated and tested on human artery wall cocultures; conditions: 100 μg per animal, tail vein; LDL 3 to 6 hours (apo A-I) or 6 hours (apo A-II) after injection

| Substance | oxidation by artery wall cells of LDL pre-incubated with the agent [1] | resistance of mouse LDL to oxidation by human artery wall cells after injection (C57BL/6 mice) |
| --- | --- | --- |
| DWL KAF YDK VAE KLK EAF PDW LKA FYD KVA EKL KEA F (DWLKAFYDKVAEKLKEAFPDWLKAFYDKVAEKLKEAF; Synthetic apo A-I peptide mimetic) [37 pA] | resistant to oxidation by the artery wall cells | – |
| apo A-II: Human apo A-II obtained from Sigma | – | did not render the mouse LDL resistant to oxidation |
| apo A-I: Human apo A-I from Sigma, major apolipoprotein of HDL; infused into humans as apo A-I/phosphatidylcholine discs | – | resistant to oxidation by human artery wall cells |
